Test results published in US10517878B2, “Serine/threonine kinase inhibitors” (GENENTECH, INC., priority 2013, dated 2019).
pIC50: −log10 of the molar value.

Amino acid sequences for entries named in this document (tags omitted). Residues count along the entry.
UniProt P28482, 8-360: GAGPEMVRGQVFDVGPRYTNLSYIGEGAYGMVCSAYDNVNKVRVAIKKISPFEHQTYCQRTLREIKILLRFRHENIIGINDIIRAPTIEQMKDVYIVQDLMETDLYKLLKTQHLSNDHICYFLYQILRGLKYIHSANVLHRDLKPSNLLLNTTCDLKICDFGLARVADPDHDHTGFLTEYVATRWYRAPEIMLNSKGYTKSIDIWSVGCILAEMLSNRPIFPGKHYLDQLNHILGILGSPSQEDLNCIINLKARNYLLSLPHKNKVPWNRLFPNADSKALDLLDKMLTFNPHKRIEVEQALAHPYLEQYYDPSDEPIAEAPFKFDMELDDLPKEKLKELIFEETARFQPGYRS

Target: human ERK-2 (Mitogen Activated Kinase 1) (Homo sapiens (Human), UniProt P28482)
Test: ERK-2 Enzymatic Assay
Format: biochemical
Conditions: human ERK-2 enzyme, S/T17 peptide substrate, 25 μM ATP; R/S = configuration of CR2R3
Experimental: Test compounds were diluted in DMSO in 3-fold serial dilutions at 100× final concentrations. […] The data collected from each well was fit to a straight line, and the resulting rates were used to calculate percent of control. Percent of control was plotted against compound concentration, and IC50 values were determined using a four-parameter fit.

pIC50	SMILES
10.14	CN1C(=O)C[C@@H](Cc2ccccc2)c2nnc3cc(-c4ccnc(Nc5ccnn5C)n4)cc1n23 [(R) I-61]
8.23	CN1C(=O)C[C@H](Cc2ccccc2)c2nnc3cc(-c4ccnc(Nc5ccnn5C)n4)cc1n23 [(S) I-61]
